Data taken from PubChem BioAssay (NCI).
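48-hour exposure; five concentrations; linearly interpolated endpoints. GI50: concentration for 50% inhibition of growth. TGI: total growth inhibition.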

Columns and labels:
Assay in all cases: NCI tumour cell line growth inhibition, 48 h; in the data active = GI50 below about 0.43 µM; inactive = the rest
RXF 393 renal = tested on: RXF 393 renal
OVCAR-5 ovarian = tested on: OVCAR-5 ovarian
T-47D breast = tested on: T-47D breast
UACC-62 melanoma = tested on: UACC-62 melanoma
NCI-H522 lung = tested on: NCI-H522 lung
SF-268 CNS = tested on: SF-268 CNS
HOP-92 NSCLC = tested on: HOP-92 NSCLC
NCI-H226 lung = tested on: NCI-H226 lung
HCT-15 colon = tested on: HCT-15 colon
HL-60(TB) leukemia = tested on: HL-60(TB) leukemia
COLO 205 colon = tested on: COLO 205 colon
CAKI-1 renal = tested on: CAKI-1 renal
TK-10 renal = tested on: TK-10 renal
HCC-2998 colon = tested on: HCC-2998 colon
NCI-H322M lung = tested on: NCI-H322M lung
MDA-N = tested on: MDA-N
SK-MEL-5 melanoma = tested on: SK-MEL-5 melanoma
ACHN renal = tested on: ACHN renal
PC-3 prostate = tested on: PC-3 prostate
MALME-3M melanoma = tested on: MALME-3M melanoma
SR leukemia = tested on: SR leukemia
A549 NSCLC = tested on: A549 NSCLC
NCI/ADR-RES ovarian = tested on: NCI/ADR-RES ovarian
SF-539 CNS = tested on: SF-539 CNS
EKVX NSCLC = tested on: EKVX NSCLC
HOP-62 NSCLC = tested on: HOP-62 NSCLC
K-562 leukemia = tested on: K-562 leukemia
BT-549 breast = tested on: BT-549 breast
U251 CNS = tested on: U251 CNS
KM12 colon = tested on: KM12 colon
MCF7 breast = tested on: MCF7 breast
UACC-257 melanoma = tested on: UACC-257 melanoma
UO-31 renal = tested on: UO-31 renal
HCT-116 colon = tested on: HCT-116 colon
IGROV1 ovarian = tested on: IGROV1 ovarian
HT29 colon = tested on: HT29 colon
DU-145 prostate = tested on: DU-145 prostate
SK-MEL-28 melanoma = tested on: SK-MEL-28 melanoma
SW-620 colon = tested on: SW-620 colon
NCI-H460 lung = tested on: NCI-H460 lung
SK-OV-3 ovarian = tested on: SK-OV-3 ovarian
M14 melanoma = tested on: M14 melanoma
MOLT-4 leukemia = tested on: MOLT-4 leukemia
RPMI-8226 leukemia = tested on: RPMI-8226 leukemia
MDA-MB-435 = tested on: MDA-MB-435
OVCAR-3 ovarian = tested on: OVCAR-3 ovarian
SF-295 CNS = tested on: SF-295 CNS
OVCAR-4 ovarian = tested on: OVCAR-4 ovarian
LOX IMVI melanoma = tested on: LOX IMVI melanoma
786-0 renal = tested on: 786-0 renal
MDA-MB-231 breast = tested on: MDA-MB-231 breast
A498 renal = tested on: A498 renal
SK-MEL-2 melanoma = tested on: SK-MEL-2 melanoma
SNB-19 CNS = tested on: SNB-19 CNS
SN12C renal = tested on: SN12C renal
CCRF-CEM leukemia = tested on: CCRF-CEM leukemia
SNB-75 CNS = tested on: SNB-75 CNS
OVCAR-8 ovarian = tested on: OVCAR-8 ovarian
NCI-H23 lung = tested on: NCI-H23 lung
HS 578T breast = tested on: HS 578T breast

Nc1ccc([As](=O)(O)O)c(O)c1
inactive: GI50 (RXF 393 renal) > 100 µM | GI50 (OVCAR-5 ovarian) > 100 µM | GI50 (T-47D breast) > 100 µM | GI50 (UACC-62 melanoma) > 100 µM | GI50 (NCI-H522 lung) > 100 µM | GI50 (SF-268 CNS) > 100 µM | GI50 (HOP-92 NSCLC) > 100 µM | GI50 (NCI-H226 lung) > 100 µM | GI50 (HCT-15 colon) > 100 µM | GI50 (HL-60(TB) leukemia) > 100 µM | GI50 (COLO 205 colon) > 100 µM | GI50 (CAKI-1 renal) > 100 µM | GI50 (TK-10 renal) > 100 µM | GI50 (HCC-2998 colon) > 100 µM | GI50 (NCI-H322M lung) > 100 µM | GI50 (MDA-N) > 100 µM | GI50 (SK-MEL-5 melanoma) > 100 µM | GI50 (ACHN renal) > 100 µM | GI50 (PC-3 prostate) > 100 µM | GI50 (MALME-3M melanoma) > 100 µM | GI50 (SR leukemia) > 100 µM | GI50 (A549 NSCLC) > 100 µM | GI50 (NCI/ADR-RES ovarian) > 100 µM | GI50 (SF-539 CNS) > 100 µM | GI50 (EKVX NSCLC) > 100 µM | GI50 (HOP-62 NSCLC) > 100 µM | GI50 (K-562 leukemia) > 100 µM | GI50 (BT-549 breast) > 100 µM | GI50 (U251 CNS) > 100 µM | GI50 (KM12 colon) > 100 µM | GI50 (MCF7 breast) > 100 µM | GI50 (UACC-257 melanoma) > 100 µM | GI50 (UO-31 renal) > 100 µM | GI50 (HCT-116 colon) > 100 µM | GI50 (IGROV1 ovarian) > 100 µM | GI50 (HT29 colon) > 100 µM | GI50 (DU-145 prostate) > 100 µM | GI50 (SK-MEL-28 melanoma) > 100 µM | GI50 (SW-620 colon) > 100 µM | GI50 (NCI-H460 lung) > 100 µM | GI50 (SK-OV-3 ovarian) > 100 µM | GI50 (M14 melanoma) > 100 µM | GI50 (MOLT-4 leukemia) > 100 µM | GI50 (RPMI-8226 leukemia) > 100 µM | GI50 (MDA-MB-435) > 100 µM | GI50 (OVCAR-3 ovarian) > 100 µM | GI50 (SF-295 CNS) > 100 µM | GI50 (OVCAR-4 ovarian) > 100 µM | GI50 (LOX IMVI melanoma) > 100 µM | GI50 (786-0 renal) > 100 µM | GI50 (MDA-MB-231 breast) > 100 µM | GI50 (A498 renal) > 100 µM | GI50 (SK-MEL-2 melanoma) > 100 µM | GI50 (SNB-19 CNS) > 100 µM | GI50 (SN12C renal) > 100 µM | GI50 (CCRF-CEM leukemia) > 100 µM | GI50 (SNB-75 CNS) > 100 µM | GI50 (OVCAR-8 ovarian) > 100 µM | GI50 (NCI-H23 lung) > 100 µM | GI50 (HS 578T breast) > 100 µM
> 100 µM: TGI (RXF 393 renal) | TGI (OVCAR-5 ovarian) | TGI (T-47D breast) | TGI (UACC-62 melanoma) | TGI (NCI-H522 lung) | TGI (SF-268 CNS) | TGI (HOP-92 NSCLC) | TGI (NCI-H226 lung) | TGI (HCT-15 colon) | TGI (HL-60(TB) leukemia) | TGI (COLO 205 colon) | TGI (CAKI-1 renal) | TGI (TK-10 renal) | TGI (HCC-2998 colon) | TGI (NCI-H322M lung) | TGI (MDA-N) | TGI (SK-MEL-5 melanoma) | TGI (ACHN renal) | TGI (PC-3 prostate) | TGI (MALME-3M melanoma) | TGI (SR leukemia) | TGI (A549 NSCLC) | TGI (NCI/ADR-RES ovarian) | TGI (SF-539 CNS) | TGI (EKVX NSCLC) | TGI (HOP-62 NSCLC) | TGI (K-562 leukemia) | TGI (BT-549 breast) | TGI (U251 CNS) | TGI (KM12 colon) | TGI (MCF7 breast) | TGI (UACC-257 melanoma) | TGI (UO-31 renal) | TGI (HCT-116 colon) | TGI (IGROV1 ovarian) | TGI (HT29 colon) | TGI (DU-145 prostate) | TGI (SK-MEL-28 melanoma) | TGI (SW-620 colon) | TGI (NCI-H460 lung) | TGI (SK-OV-3 ovarian) | TGI (M14 melanoma) | TGI (MOLT-4 leukemia) | TGI (RPMI-8226 leukemia) | TGI (MDA-MB-435) | TGI (OVCAR-3 ovarian) | TGI (SF-295 CNS) | TGI (OVCAR-4 ovarian) | TGI (LOX IMVI melanoma) | TGI (786-0 renal) | TGI (MDA-MB-231 breast) | TGI (A498 renal) | TGI (SK-MEL-2 melanoma) | TGI (SNB-19 CNS) | TGI (SN12C renal) | TGI (CCRF-CEM leukemia) | TGI (SNB-75 CNS) | TGI (OVCAR-8 ovarian) | TGI (NCI-H23 lung) | TGI (HS 578T breast)
